## Antibody variant affinities, Ab-14 light chain, assay B

Antigen: PDVDLGDISGINAS, a 14-residue peptide of the SARS-CoV-2 spike HR2 region.

Parent: Ab-14, a human scFv built as VH, a (GGGGS)3 linker, VL. Only the CDRs of the light chain vary.
VH: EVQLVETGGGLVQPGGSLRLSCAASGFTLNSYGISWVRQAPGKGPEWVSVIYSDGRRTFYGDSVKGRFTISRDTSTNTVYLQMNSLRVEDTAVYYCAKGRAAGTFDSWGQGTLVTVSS
VL: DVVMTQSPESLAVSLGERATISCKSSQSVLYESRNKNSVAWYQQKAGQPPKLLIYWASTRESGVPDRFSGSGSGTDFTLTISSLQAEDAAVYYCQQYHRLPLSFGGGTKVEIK

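Phage display of a naive human antibody library on the peptide gave the parent. Designed CDR sequences, proposed from the first random library and measured here. Several design methods are mixed in this list. The scFvs were displayed on barcoded MATa yeast, the peptide on MATalpha yeast. Mating (16 h, 30 °C) was followed by selection of diploids and sequencing of their barcodes. A regression on co-assayed BCL2-family reference pairs converts the normalised counts of each replicate to an apparent Kd. The assay was run in six technical replicates.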

Each variant is given by its three light chain CDRs, as the data file delimits them; those of the parent are KSSQSVLYESRNKNSVA, WASTRES, QQYHRLPLS. This list holds designs with at most six substitutions. Numbers give log10(Kd / nM), so 0 is 1 nM and 3 is 1 µM. Smaller is tighter. Averages over replicates are reported, and they cover detected replicates only. Where no diploid with the target was found in any replicate, the entry reads "nd": below detection, most likely a poor binder, though not proof of it.

| CDR-L1 | CDR-L2 | CDR-L3 | mean log10 Kd (nM) | detected |
|---|---|---|---|---|
| KLSQSELYESRNKNSVA | NASERES | QQYHRLPLS | -0.26 | 6/6 |
| KSSQPVLYEWTNKNSVA | WASTRES | QQYHRLPLS | 0.82 | 6/6 |
| KSSQSTLYESRNSNSVA | NASTRES | TQYHRLPLS | 2.78 | 3/6 |
| KLYQSQLYESRMKNSVA | NASTRES | QQYHRLPLS | 0.11 | 6/6 |
| KLYQSELYESRNKNSVA | NASTRMS | QQYHRLPLS | 0.55 | 6/6 |
| KLYQSVLYESRNKNSVA | DASTRES | QQYHRLPLS | 0.17 | 6/6 |
| KISISYLEESRNKNSVA | EASTRES | QQYHRLPLS | 1.20 | 5/6 |
| KFDQGALYESRNKNSVA | GASTRES | QQYHRLPLS | -0.43 | 6/6 |
| HVSQSELYESRNKNSVA | NASTRES | QQYHRLPLS | -0.14 | 6/6 |
| KSSQSVDYESRNKNGIA | WASTRFS | QQYHRLPLS | 1.73 | 4/6 |
| KLSQSVLYESRNKNNVA | EASTRMS | QQYHRLPLS | -0.15 | 6/6 |
| FLSQSVLYESRNKNSVA | EASTRES | QQYHRLPLS | 0.51 | 6/6 |
| KSSISYLYESRNINSVA | EASTRES | QQYHRLPLS | 1.73 | 6/6 |
| KSCQSVLYESRNANSVA | SASTRES | QQYHKLPVS | 0.59 | 6/6 |
| KSSQSVLKESLNKNSVA | WASTRES | QQYHRDPLS | nd | 0/6 |
| KSSHEVLYESRNKNSVA | WASIRES | QQYHRLPLS | 1.67 | 6/6 |
| KVSQSELYESRNKNSVA | QASTRES | QQYHRLPLS | -0.14 | 6/6 |
| KSSQSVLFQSRNKNSVA | DASTREQ | QQYHRLPLS | 0.16 | 6/6 |
| KLSQSVLYEERQKNSVA | NASQRES | QQYHRLPLS | 0.34 | 6/6 |
| KSSQSVLYESRNQLSVA | EASTRES | QGYHRLPLS | 1.83 | 2/6 |
| KSSTSVLYESRNKNSVA | WASTRVS | QQYHRLGLS | 2.67 | 2/6 |
| ILSQSELYESRNKNSVA | NASTRMS | QQYHRLPLS | -0.34 | 6/6 |
| KLSQSVLYEDRNKNSVA | HASQRES | QQYHRLPLS | -0.77 | 6/6 |
| KLSQSWPYESRNKNSVA | NASQRES | QQYHRLPLS | 0.09 | 6/6 |
| KSSQSVLYEWRNKNSVA | DASTRES | QQYHRMPLS | 0.48 | 6/6 |
| KVQQSQLYESRNKNSVA | NASTRED | QQYHRLPLS | -0.46 | 6/6 |
| KQSQSVLYESRNKNSVA | DASTRMS | QQYHRLPLS | -0.02 | 6/6 |
| GSSQSVLYESRNSNSVA | WATTRLS | QQYHRLPLS | nd | 0/6 |
| KSSQSVLYESGNKNSVA | GASTRES | QQYHRLPLS | 0.28 | 6/6 |
| KDSQSVKFESRNKNSVA | DASTRES | QQYHRLPLS | 0.77 | 6/6 |
| KLQQSDLYESRNKNSVA | NASYRES | QQYHRLPLS | 0.29 | 6/6 |
| KVSQSTLYESRNKNSVA | MASTRES | QQYHRLPLS | 0.28 | 6/6 |
| KSSQSWLYESRNKNSVA | GASVREV | QQYHRLPLS | -0.22 | 6/6 |
| KLSQSVLYESRNKNSVA | EASTRMS | QQYHRLPLS | -0.30 | 6/6 |
| KSSQSVEYESRNKNHVA | WASTRES | QQVHRLPDS | 2.84 | 3/6 |
| KSEQGVLYQSRNKNSVA | GASTRES | QQYHRLPLS | 0.00 | 6/6 |
| KVSQSMLYESRNKNNVA | DASTRES | QQYHRLPLS | -0.34 | 6/6 |
| KSSQSVLYEDRNKNSVA | WASTREM | QQYMRLPLM | 1.86 | 6/6 |
| KSSESVLYQSRNKNSVA | WASTRES | QQYHRLPLS | 0.04 | 6/6 |
| KSSQSFLYESRWKNSVA | EASQRES | QQYHRLPLS | 0.74 | 6/6 |
| KLSQSELYESRNKNSVA | NASTRES | QDYHRLPLS | -0.12 | 6/6 |
| KLQQSDLYESRNKNSVA | NASQRES | QQYHRLPLS | -0.36 | 6/6 |
| KSSQSVLDESRNKNSVA | WASTREM | QQYHRLPLS | 1.97 | 6/6 |
| KMSQSVLMESRNKNSVA | DASQRES | QQYHRLPLS | -0.46 | 6/6 |
| KSKQSLLYESKNVNSVA | WASTREG | QQYKRLPLS | 1.93 | 2/6 |
| KSSDSVGYESRNKNSIA | RASTRES | QQYHRLPLS | 0.45 | 6/6 |
| KLSQSVLYESRNKNSVA | DASTRES | YAYHRLPSS | nd | 0/6 |
| KSSQSVLYESRNKNSVA | WADTRES | QQYHRLPLL | 1.29 | 6/6 |
| KMEQGQLYESRNKNSVA | GASVRES | QQYHRLPLS | -0.27 | 6/6 |
| KSSISWLYEDRVKNSVA | GASTRES | QQYHRLPLS | 0.51 | 6/6 |
| KLSQSDLYESRNKWSVA | NASTRES | QQYHRLPLS | -0.12 | 6/6 |
| KMSQSVWYESRNKNSVA | NASTRES | QQYHRLPLS | 0.06 | 6/6 |
| KLSQQWLYESRNKNSVA | SASTRES | QQYHRLPLS | -0.25 | 6/6 |
| KSSQSWLYESRNKNSVA | GASLREV | QQYHRLPLS | -0.04 | 6/6 |
| KSSQSVLYEDRNKNSVA | SESTREM | QQYHRLPLS | 0.80 | 6/6 |
| KSSQSVLYESRNENPIA | QASTREV | QQYHRLPLS | -0.10 | 6/6 |
| KVSQSMLYESRNKNSVA | NASTRES | QSYHRLPLS | -0.15 | 6/6 |
| KLSQSVGYGSRNKWSVA | EASTRES | QQYHRLPLS | 0.20 | 6/6 |
| KQSMSVLYESRNKNSVA | WASTRES | QQYHRLPLS | 0.39 | 6/6 |
| KLSQSVLYEQRNKNNVA | GASTRES | QQYHRLPLS | -0.45 | 6/6 |
| KSSQSVLYEERNKNSVA | WASTRES | QQYHRTPLS | nd | 0/6 |
| KSSQSWLYESRNKNSVA | GASTRES | QQYHRLTLS | 0.92 | 6/6 |
| KLMQSELYESRNKNSVA | NASYRES | QQYHRLPLS | -0.33 | 6/6 |
| KSSQSHLYESRNKNSVA | GASTRES | QAYHRLPLS | 0.96 | 6/6 |
| KSSQEVLYESRNKNSVA | AASTRES | QQYHRLPLS | 0.16 | 6/6 |
| KVSQSMPYESRNKNSVA | NASQRES | QQYHRLPLS | -0.19 | 6/6 |
| KFQQAWLYESRNKNSVA | NASCRES | QQYHRLPLS | 0.15 | 6/6 |
| KLSQSVLYESRVKNSVA | NASQRES | QQYHRLPLS | 0.05 | 6/6 |
| KFSQSQLYESRNKNSVA | EASTRES | QQYHRLPLS | -0.07 | 6/6 |
| KLSQSMLYESRMKNSVA | NASQRLS | QQYHRLPLS | 0.07 | 6/6 |
| KSSWSVTYESRNDNSVA | WASTRES | QQYHRLPLS | nd | 0/6 |
| KVSQSVGYESRNKNSVA | EASTRES | QQYHRLPLS | 0.09 | 6/6 |
| KLSQSVMYESRNKNSVA | EASTREQ | QQYHRLPLS | -0.32 | 6/6 |
| KSSQSVQYESHNKNSVN | WASFRES | QQYHRLPLS | 2.01 | 1/6 |
| KSSQSVLYEFRNKNSVA | WASTRTS | QQYHRLPLS | 0.90 | 1/6 |

As a blank, each scFv also met three strains without target: over all light chain designs, 4% of these pairings were detected, typically at 2.64 and seldom below 1.59. The authors averaged sequences with at least three values out of six and counted those with two or fewer as poor binders. A sequence measured in both rounds can read differently, since the two assays cover different ranges. The parent sequence was in this pool as ten entries: three were never detected, three once, and four in most replicates, with averages from 0.34 to 2.37.

The measurements come from Li et al. 2023 (doi:10.1038/s41467-023-39022-2) through the FLAb antibody collection.